One series has as its system CCCC(=O)N[C@H]1CCOC1=O. As to the kind of experiment: purified protein. To be noted: 50 mM sodium phosphate pH 6.8, 37 °C, 10 min, 5% methanol substrate.
Series [1] deals with CCCCCCCCCC(=O)CC(=O)N[C@H]1CCOC1=O. As to the kind of experiment: purified protein. The conditions noted are these: 50 mM sodium phosphate pH 6.8, 37 °C, 10 min, 5% methanol substrate.

For AidH (Ochrobactrum sp. T63; A147F), in the series with CCCC(=O)N[C@H]1CCOC1=O, the Km came out at 1080 ± 250 µM and the kcat stood at 1.42 s⁻¹. Besides, in series [1], the Km was 640 ± 120 µM and the kcat amounted to 9.3 s⁻¹.
For AidH (Ochrobactrum sp. T63; A147G), in that order: 160 ± 20 µM, 55.1 s⁻¹, 360 ± 80 µM and 67.2 s⁻¹.
Regarding AidH (Ochrobactrum sp. T63; A147V), in the series with CCCC(=O)N[C@H]1CCOC1=O, the Km was found to be 380 ± 60 µM and the kcat was 9.79 s⁻¹. In series [1], the Km is 150 ± 20 µM and the kcat was found to be 12.6 s⁻¹.

These data come from publication PMC9872604, “Targeting Multidrug-Recalcitrant Pseudomonas aeruginosa Biofilms: Combined-Enzyme Treatment Enhances Antibiotic Efficacy” (Antimicrobial Agents and Chemotherapy, 2023).
